An excerpt weighted towards active compounds, which were near 2.8% of everything screened.
PGC1a acetyl inh – lowers PGC1a acetylation signal in U2OS cells | AID 651687 | inhibition, % at 15.6 µM | hit rate 0.17% among 350,000 | AlphaScreen anti-acetyl-lysine; with virally co-expressed GCN5 acetyltransferase;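 active means every replicate shows inhibition of at least 40%; inconclusive means mean inhibition at least 40% but some replicate below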;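 further: 0% = neutral control wells and 100% = positive control wells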
E-selectin induc – induces E-selectin expression in human endothelial cells; hit rate 0.37% among 260,000; HUVEC E-selectin immunofluorescence imaging; normalized: neutral wells 0, TNF-alpha wells 100; P16581; activation, % at 7.58 µM;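 active means mean E-selectin-positive cell signal at least 10% of the positive control, reached in at least 60% of replicates, without over 20% cell loss; inconclusive means no rule given, readout overlaps actives, possibly toxicity-flagged; inactive means the rest, including those meeting only one limit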
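Material: HUVEC primary endothelial cells; Amount: 3,000 cells per well; Dosing: single concentration; Medium: EGM-2 growth medium on 0.1% gelatin-coated wells; Read-out basis: percent E-selectin-positive cells; Signal: immunofluorescence imaging; Control set: TNF-alpha, DMSO.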
UUG fidelity – modulators of yeast start codon fidelity, primary screen, whole organism, S. cerevisiae, single point, plate reader | AID 602363, 2012 | actives 0.13% (n = 350,000) | activity score, % at 18.7 µM | S. cerevisiae UUG-firefly luciferase reporter, luminescence/redox ratio;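 active means replicate mean at a twofold rise or more, about +100% in these data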;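 further: firefly luciferase made from a UUG start codon reports start codon fidelity; reporter light over untreated wells divided by growth signal over untreated wells; some hits fall short of that in this replicate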
PglD DTNB – PglD (C. jejuni) enzyme inhibition; purified PglD enzyme, DTNB colorimetric CoA detection; inhibition, % at 12.5 µM; hit rate 0.098% among 360,000; in the data active means inhibition above about 16%, passing the limit was not always enough; inconclusive means no clear call, values can overlap the other calls
esBAF inh – blocks esBAF chromatin remodeling in mouse ES cells | Bmi1-luciferase knock-in reporter, 24 h; 100% = twice the neutral-well signal | reporter increase, % at 12.5 µM | hit rate 2% among 350,000; in the data active means activation above about 40%; inconclusive means no clear call, values can overlap the other calls;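 further: 0% = median of the plate's neutral control wells and 100% = double that signal; a rise in the Bmi1 reporter signal indicates esBAF inhibition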
C2C12 statin – suppressors of simvastatin-induced myotoxicity in C2C12 myotubes. ATP luminescence, 48 h; scaled: DMSO 0, geranylgeraniol control 100. hit rate 0.78% among 330,000. rescue of ATP level, % at 7.49 µM;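 active means mean ATP rescue above about 67%, or every replicate alone reaching that limit, limit read from the data, passing the limit was not always enough; inconclusive means no clear call, values can overlap the other calls; inactive means mean under the limit and some replicate under it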;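 further: myotubes were challenged with 10 µM simvastatin during compound exposure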
Starred values were filed as active, the others as inactive; ? = inconclusive; · = not tested or not shown.

Values in the order – C2C12 statin | PGC1a acetyl inh | UUG fidelity | E-selectin induc | esBAF inh | PglD DTNB
1. CCC1CCCCN1C(=O)CSc1nnc(-c2cccc(Cl)c2)o1 (configuration not stated)
  6.4 | · | 23.8 | · | 50.4* | -3.4
2. O=Cc1ccccc1OCCCOc1cccc2cccnc12
  7.2 | -6.7 | 5.7 | 0.5 | 25.4 | -2.8
3. O=[N+]([O-])c1ccccc1OCCCOc1cccc2cccnc12
  -10.7 | -30.0 | -13.7 | -0.1 | 59.7* | -9.1
4. Clc1ccccc1OCCCOc1cccc2cccnc12
  -5.5 | · | 3.9 | 0.1 | 55.4* | -0.4
5. COc1cccc(OC)c1OCCCOc1cccc2cccnc12
  -23.6 | 7.9 | -0.7 | -1.1 | ? | -1.3
6. Brc1ccc(OCCCOc2cccc3cccnc23)cc1
  3.0 | -12.3 | -5.1 | 0.0 | 71.5* | 5.6
7. CCOc1ccc(-c2cc(C(=O)NC3CCCCC3)[nH]n2)c(C)c1
  -21.0 | 4.6 | -14.2 | 0.1 | 57.4* | -2.5
8. CCOc1ccc(-c2cc(C(=O)NCc3cc(OC)cc(OC)c3)[nH]n2)c(C)c1
  11.2 | 3.2 | -27.8 | 2.0 | -4.4 | -21.9
9. COc1ccc(F)cc1-c1cc(C(=O)NC2CCCCC2)[nH]n1
  -9.5 | 0.9 | -17.4 | 0.4 | 49.3* | 2.5
10. COc1ccc(Cl)cc1-c1cc(C(=O)NCC2CCCCC2)[nH]n1
  -30.6 | -2.8 | -34.8 | 0.3 | -8.2 | ·

Other structures follow.
Values in the order – C2C12 statin | PGC1a acetyl inh | UUG fidelity | E-selectin induc | esBAF inh | PglD DTNB
11. C[C@H]1CN([C@@H](C)CO)C(=O)c2cc(NC(=O)Nc3ccc4c(c3)OCO4)ccc2O[C@H]1CN(C)Cc1ccc2c(c1)OCO2
  -12.8 | 0.4 | -12.5 | 0.1 | -4.3 | 1.3
12. CNC[C@H]1Oc2ccc(NC(=O)NC(C)C)cc2CC(=O)N([C@@H](C)CO)C[C@@H]1C
  25.9 | 6.1 | 4.4 | · | 1.2 | -0.8
13. O=S(=O)(Nc1nc2c(s1)CCCC2)c1ccc2ccccc2c1
  122.6* | 1.9 | -19.1 | · | -1.2 | 3.7
14. O=S(=O)(NC1=NCCCCC1)c1ccc2sc(NS(=O)(=O)c3ccc4ccccc4c3)nc2c1
  42.8 | -11.9 | -8.0 | -0.2 | 3.1 | -12.6
15. Cc1cccc(NC(=O)C(=O)NCC2CCCN2S(=O)(=O)c2cccs2)c1 (configuration not stated)
  4.3 | 5.1 | -8.4 | · | 42.4* | 1.8
16. C[C@H](CO)N1C[C@H](C)[C@H](CN(C)C(=O)Nc2ccc3c(c2)OCO3)Oc2ccc(NC(=O)Nc3ccc(C(F)(F)F)cc3)cc2CC1=O
  6.4 | -4.8 | 6.5 | -5.7 | -2.2 | -0.5
17. O=C(COn1nnc2ccccc21)NCC1CCCCC1
  · | 3.3 | -0.9 | · | 53.2* | -2.5
18. Cc1ccc(NCCC(=O)c2ccccc2)cc1Cl
  · | · | 1.1 | 0.2 | 59.6* | 4.7
19. Cc1ccc(NCC(=O)c2ccccc2)cc1Cl
  -19.4 | -1.0 | -10.7 | · | 34.6 | 4.9
20. Cc1cc(C)c(-c2nc3ccccc3s2)[nH]1
  8.5 | · | -3.0 | 0.3 | 75.8* | -1.3

The listing continues:
Values in the order – C2C12 statin | PGC1a acetyl inh | UUG fidelity | E-selectin induc | esBAF inh | PglD DTNB
21. Oc1cccc(-c2nc3ccccc3s2)c1
  · | 8.1 | -81.1 | · | -25.2 | 11.2
22. C[C@@H]1CN([C@@H](C)CO)C(=O)c2cc(-c3cccc(F)c3)cnc2O[C@@H]1CN(C)C(=O)C1CC1
  -0.7 | 1.5 | · | 1.7 | · | ·
23. O=C(O)C[C@@H]1C[C@@H]2c3cc(NC(=O)C4CCOCC4)ccc3O[C@@H]2[C@H](CO)O1
  · | -4.2 | · | -0.2 | · | ·
24. CNC(=O)c1ccc(-c2ccc(F)cc2)s1
  69.4* | 7.2 | -12.7 | · | 15.1 | -7.2
25. COc1cccc(-n2c(SCC(=O)O)nnc2-c2cccnc2)c1
  -1.3 | 5.2 | -10.3 | · | -4.5 | 2.3
26. CCSc1nnc(-c2cccnc2)n1-c1ccc(Cl)c(C)c1
  111.2* | 8.5 | -10.9 | · | -3.8 | -3.1
27. O=C1NC2(CCCCC2)C(=O)N1/N=C/c1ccccc1Br
  4.6 | · | 42.2 | 2.8 | 49.2* | -12.2
28. COc1ccc(COCC23N=C4SCc5ccccc5CN4[C@H](c4ccccc4O2)[C@H]3CO)cc1
  · | -10.9 | -21.0 | · | · | 0.8
29. COc1ccccc1C(O)Cc1nc2ccccc2n1C (configuration not stated)
  4.4 | 0.6 | -5.2 | · | 48.3* | -5.9
30. COc1ccccc1OCc1nc2ccccc2n1C
  -1.3 | · | -14.5 | 0.2 | 47.6* | -3.3
31. CC(C)NC(=O)N1CC2(C1)[C@H](c1ccccc1)[C@@H](CO)N2CCC(F)(F)F
  · | -7.7 | · | 0.7 | · | ·
32. CCC(=O)Nc1ccc2c(c1)ncn2-c1ccc(C)cc1
  -16.1 | 0.1 | 1.6 | 5.1 | 49.4* | 4.5
33. CCC(=O)Nc1ccc2c(c1)ncn2-c1ccc(OC)cc1
  -45.4 | -1.0 | -6.4 | · | 36.3 | 3.5

Rewritten as a markdown table: 4 of the compounds above.
| entry | Molecule | C2C12 statin | PGC1a acetyl inh | UUG fidelity | E-selectin induc | esBAF inh | PglD DTNB |
| --- | --- | --- | --- | --- | --- | --- | --- |
| 26 | CCSc1nnc(-c2cccnc2)n1-c1ccc(Cl)c(C)c1 | 111.2* | 8.5 | -10.9 | · | -3.8 | -3.1 |
| 27 | O=C1NC2(CCCCC2)C(=O)N1/N=C/c1ccccc1Br | 4.6 | · | 42.2 | 2.8 | 49.2* | -12.2 |
| 28 | COc1ccc(COCC23N=C4SCc5ccccc5CN4[C@H](c4ccccc4O2)[C@H]3CO)cc1 | · | -10.9 | -21.0 | · | · | 0.8 |
| 29 | COc1ccccc1C(O)Cc1nc2ccccc2n1C (configuration not stated) | 4.4 | 0.6 | -5.2 | · | 48.3* | -5.9 |

Source: PubChem BioAssay (Broad Institute)
